Measured values published in patent publication US9914709B2 (dated 2018).

Test system: MT-2 human T-cells
Experiment: Cytotoxicity, inhibition of MT-2 cell growth
Settings: read-out: cytotoxicity (CC50); Table 4; human MT-2 cells

Going from Cc1cc(C)c(Nc2cc(OCCCN3CCOCC3)nc(Nc3ccc(C#N)cc3)n2)c(C)c1 [Compound 5b, 4-((4-(mesitylamino)-6-(3-morpholinopropoxy)pyrimidin-2-yl)amino)benzonitrile] to Cc1cc(C)c(Nc2nc(Nc3ccc(C#N)cc3)nc(OCCN3CCOCC3)n2)c(C)c1 [Compound 6a, 4-((4-(mesitylamino)-6-(2-morpholinoethoxy)-1,3,5-triazin-2-yl)amino)benzonitrile], the CC50 rises from 3.1 µM to 95 µM (31-fold).

Cc1cc(C)c(Nc2nc(Nc3ccc(C#N)cc3)nc(OCCC3CCNCC3)n2)c(C)c1 [Compound 12a, 4-((4-(mesitylamino)-6-(2-(piperidin-4-yl)ethoxy)-1,3,5-triazin-2-yl)amino)benzonitrile] and Cc1cc(/C=C/C#N)cc(C)c1Nc1nc(Nc2ccc(C#N)cc2)nc(OCCCN2CCOCC2)n1 [Compound 6d, (E)-4-((4-((4-(2-cyanovinyl)-2,6-dimethylphenyl)amino)-6-(3-morpholinopropoxy)-1,3,5-triazin-2-yl)amino)benzonitrile] are within 1.5-fold of each other in CC50: 4.2 µM for the first, 4.5 µM for the second.

Compared with Cc1cc(C#N)cc(C)c1Oc1nc(Nc2ccc(C#N)cc2)nc(N)c1Br [etravirine], CC(C)c1cc(F)c(Nc2nc(Nc3ccc(C#N)cc3)nc(OCCCN3CCOCC3)n2)c(F)c1 [Compound 6g, 4-((4-((2,6-difluoro-4-isopropylphenyl)amino)-6-(3-morpholinopropoxy)-1,3,5-triazin-2-yl)amino)benzonitrile] is 7.3-fold lower in CC50: 11 µM for the first, 1.5 µM for the second.

First: CCc1cc(F)c(Nc2nc(Nc3ccc(C#N)cc3)nc(OCCCN3CCOCC3)n2)c(F)c1 [Compound 6f, 4-((4-((4-ethyl-2,6-difluorophenyl)amino)-6-(3-morpholinopropoxy)-1,3,5-triazin-2-yl)amino)benzonitrile]
Second: N#Cc1ccc(Nc2nc(Nc3c(F)cc(C4CC4)cc3F)nc(OCCCN3CCOCC3)n2)cc1 [Compound 6h, 4-((4-((4-cyclopropyl-2,6-difluorophenyl)amino)-6-(3-morpholinopropoxy)-1,3,5-triazin-2-yl)amino)benzonitrile]
The CC50 of the first is 5.9-fold higher: 13 µM for the first, 2.2 µM for the second.
